{"source": "patent US12128045B2", "about": "“Platinum-resistant cancer treatment” (BTG International Limited, priority 2017, dated 2024)", "origin": "cited, not measured here", "biological_target": "thymidylate synthase (TS)", "conditions": "read-out: Ki against isolated target thymidine synthase; cited from earlier work", "note": "pKi: −log10 of the molar value."}
{"compound": "Nc1nc2[nH]cc(CCc3ccc(C(=O)N[C@@H](CCC(=O)O)C(=O)O)cc3)c2c(=O)[nH]1", "note": "[pemetrexed]", "values": [{"measurement": "pKi", "value": 8.85}]}
